Target: T1, 17-beta-hydroxysteroid dehydrogenase type 2 (Homo sapiens, UniProt P37059)
T1 sequence (P37059 whole entry): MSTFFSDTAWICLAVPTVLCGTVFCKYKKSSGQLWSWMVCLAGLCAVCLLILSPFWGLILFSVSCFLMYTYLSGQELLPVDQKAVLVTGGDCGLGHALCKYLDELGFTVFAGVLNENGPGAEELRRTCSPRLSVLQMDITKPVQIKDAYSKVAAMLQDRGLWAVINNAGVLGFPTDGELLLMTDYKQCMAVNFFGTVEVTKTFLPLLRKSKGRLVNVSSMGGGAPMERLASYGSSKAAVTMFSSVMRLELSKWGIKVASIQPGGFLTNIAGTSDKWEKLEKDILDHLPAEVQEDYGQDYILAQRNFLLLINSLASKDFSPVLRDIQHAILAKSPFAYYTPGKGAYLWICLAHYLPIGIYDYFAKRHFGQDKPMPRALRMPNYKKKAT
Experiment: Radioactivity Assay: The determination of IC50 values was performed with enzyme isolated from human placenta (Luu-The, V. et al., J. Steroid Biochem. Mol. Biol., 55:581-587 (1995): Sam, K. M. et al., Drug Des Discov., 15:157-180 (1997)). The radioactivity is determined by means of scintillation measurement.

Oc1cccc(-c2ccc3c(-c4ccncc4)c(O)ccc3c2)c1
IC50: 583 nM

— ChEMBL document CHEMBL3638998, “17Beta-hydroxysteroid dehydrogenase type 1 inhibitors for the treatment of hormone-related diseases” (2013)
